Here are results for 8 molecules from PubChem BioAssay.

Sequences of proteins named here, by UniProt entry; tags and fusion partners are left off. A change or cut given only in a name is not applied to a line headed by its entry.
UniProt O15520: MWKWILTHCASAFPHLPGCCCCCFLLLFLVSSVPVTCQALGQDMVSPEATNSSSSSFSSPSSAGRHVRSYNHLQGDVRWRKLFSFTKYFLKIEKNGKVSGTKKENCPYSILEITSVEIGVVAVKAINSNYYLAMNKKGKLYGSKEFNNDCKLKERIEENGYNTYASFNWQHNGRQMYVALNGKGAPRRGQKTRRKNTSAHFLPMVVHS
UniProt O95633: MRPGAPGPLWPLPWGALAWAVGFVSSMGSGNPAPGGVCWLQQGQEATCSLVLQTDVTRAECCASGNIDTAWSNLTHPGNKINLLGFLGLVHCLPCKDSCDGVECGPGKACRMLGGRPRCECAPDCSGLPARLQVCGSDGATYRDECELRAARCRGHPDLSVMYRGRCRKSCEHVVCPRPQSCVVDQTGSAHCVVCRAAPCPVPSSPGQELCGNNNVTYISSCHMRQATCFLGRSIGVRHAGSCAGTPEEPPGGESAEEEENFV
UniProt O94907: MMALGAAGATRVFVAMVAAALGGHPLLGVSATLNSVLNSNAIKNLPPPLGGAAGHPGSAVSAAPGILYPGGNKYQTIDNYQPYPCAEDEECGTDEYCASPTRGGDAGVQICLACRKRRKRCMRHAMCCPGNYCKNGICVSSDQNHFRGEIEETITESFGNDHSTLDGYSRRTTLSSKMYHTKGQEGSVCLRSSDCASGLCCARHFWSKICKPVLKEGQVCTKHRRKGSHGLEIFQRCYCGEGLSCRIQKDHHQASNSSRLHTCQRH
UniProt O00292: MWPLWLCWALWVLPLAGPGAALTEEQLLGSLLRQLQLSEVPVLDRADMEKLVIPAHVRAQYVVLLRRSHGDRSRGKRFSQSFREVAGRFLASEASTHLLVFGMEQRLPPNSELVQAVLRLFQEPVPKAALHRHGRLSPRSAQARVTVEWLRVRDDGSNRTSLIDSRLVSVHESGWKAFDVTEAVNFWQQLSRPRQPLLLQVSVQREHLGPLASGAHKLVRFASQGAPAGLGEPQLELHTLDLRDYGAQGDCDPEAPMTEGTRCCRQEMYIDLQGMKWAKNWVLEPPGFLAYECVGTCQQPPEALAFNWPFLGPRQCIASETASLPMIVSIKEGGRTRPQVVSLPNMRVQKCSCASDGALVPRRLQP
UniProt Q5JTV8: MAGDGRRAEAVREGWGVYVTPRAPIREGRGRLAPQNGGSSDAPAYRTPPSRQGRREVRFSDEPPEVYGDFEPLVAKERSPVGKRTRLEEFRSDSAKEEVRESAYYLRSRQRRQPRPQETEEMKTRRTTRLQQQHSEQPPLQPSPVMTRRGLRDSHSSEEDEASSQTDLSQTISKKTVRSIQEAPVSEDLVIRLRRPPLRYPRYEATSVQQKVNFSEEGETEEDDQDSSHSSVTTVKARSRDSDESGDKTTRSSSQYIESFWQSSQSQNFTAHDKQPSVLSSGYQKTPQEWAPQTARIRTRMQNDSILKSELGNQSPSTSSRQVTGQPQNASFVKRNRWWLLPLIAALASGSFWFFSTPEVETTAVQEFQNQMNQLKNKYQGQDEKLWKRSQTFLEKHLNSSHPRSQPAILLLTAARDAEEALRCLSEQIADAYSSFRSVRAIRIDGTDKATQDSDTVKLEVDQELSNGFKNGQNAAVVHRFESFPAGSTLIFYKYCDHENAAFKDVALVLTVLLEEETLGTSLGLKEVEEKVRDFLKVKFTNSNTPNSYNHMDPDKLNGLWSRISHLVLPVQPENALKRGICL
UniProt P02769, whole entry, looked up: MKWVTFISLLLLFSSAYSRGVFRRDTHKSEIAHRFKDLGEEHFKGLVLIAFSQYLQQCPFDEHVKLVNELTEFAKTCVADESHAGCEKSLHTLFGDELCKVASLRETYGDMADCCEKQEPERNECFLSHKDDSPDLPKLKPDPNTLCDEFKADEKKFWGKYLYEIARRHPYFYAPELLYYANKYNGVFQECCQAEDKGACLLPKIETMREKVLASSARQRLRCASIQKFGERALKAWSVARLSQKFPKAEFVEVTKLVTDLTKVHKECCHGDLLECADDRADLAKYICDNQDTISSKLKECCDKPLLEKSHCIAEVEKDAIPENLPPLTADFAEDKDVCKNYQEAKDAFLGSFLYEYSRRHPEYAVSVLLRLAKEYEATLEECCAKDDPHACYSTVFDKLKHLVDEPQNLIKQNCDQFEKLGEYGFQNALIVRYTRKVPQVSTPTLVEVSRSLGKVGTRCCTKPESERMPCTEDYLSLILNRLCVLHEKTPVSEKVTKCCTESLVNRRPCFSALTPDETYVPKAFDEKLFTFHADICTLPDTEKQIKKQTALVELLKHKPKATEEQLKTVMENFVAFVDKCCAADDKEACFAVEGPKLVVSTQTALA

This is a selection; strong and weak results do not stand in their true shares. The source made the active and inactive calls.

Test [1] deals with Fibroblast growth factor 10 (Homo sapiens) (UniProt O15520). The experiment in a line: FGF10 binders on small-molecule microarrays, primary screen, biochemical, small-molecule microarray, 635 nm fluorescence (AID 1102). Conditions: FGF10 binding, fluorescence 635 nm, higher = more signal.
Test [2] has as its system glycogen synthase kinase-3 (GSK3A per assay name; protocol says GSK3B). Nature of the test: GSK3 binders on small-molecule microarrays, primary screen, biochemical, small-molecule microarray, 635 nm fluorescence, GSK3A (AID 1103). Further: the record names both GSK3A and GSK3B. The conditions noted are these: small-molecule microarray binding, fluorescence 635 nm; higher = more signal.
Test [3] addresses Epidermal growth factor receptor (Homo sapiens) (UniProt P00533). Nature of the test: EGFR binders on small-molecule microarrays, primary screen, biochemical, small-molecule microarray, 635 nm fluorescence (AID 1104).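 Further: score merges 667 nm emission intensity with spot signal to noise over triplicate slides.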 The conditions noted are these: EGFR binding, higher = more signal.
For test [4], the target named is Follistatin-related protein 3 (Homo sapiens) (UniProt O95633). The experiment in a line: FSTL3 binders on small-molecule microarrays, primary screen, biochemical, small-molecule microarray, 635 nm fluorescence (AID 1105).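 Further: score merges emission near 667 nm and signal to noise per printed spot across three slides.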 Conditions: FSTL3 binding, higher = more signal.
In test [5] the target is Dickkopf-related protein 1 (Homo sapiens) (UniProt O94907). Nature of the test: DKK1 binders on small-molecule microarrays, primary screen, biochemical, small-molecule microarray, 635 nm fluorescence scan (AID 1106).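 Further: score merges emission near 667 nm with signal to noise over three replicate slides.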 The conditions noted are these: DKK1 binding, higher = more signal.
The subject of test [6] is Inhibin beta A chain (activin A). Nature of the test: INHBA (activin A) binders on microarrays, primary screen, biochemical, small-molecule microarray, 635 nm fluorescence scan (AID 1107).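 Further: mouse activin A protein probed at 4.33 µg/mL on printed slides; score merges bound-protein fluorescence near 667 nm with spot signal-to-noise.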 The conditions noted are these: small-molecule microarray binding, higher = more signal.
A short description of test [7]: modulators of HCV replicon luciferase signal, primary screen, HCV replication inhibitor project, Huh7 cells, luciferase reporter (AID 1109).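 Further: huh7 hepatoma cells harbouring a luciferase neomycin HCV replicon reporter; luciferase luminescence as measure of HCV replicon replication; test concentration not given here.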 Conditions: 48 h, higher = more signal. (In general: In antiviral work, replicon cells carry a viral genome segment that copies itself.)
The target of test [8] is Left-right determination factor 2 (Homo sapiens) (UniProt O00292). Nature of the test: LEFTY2 binders on small-molecule microarrays, primary screen, biochemical, small-molecule microarray, 635 nm fluorescence scan (AID 1110). Conditions: LEFTY2 binding, higher = more signal.
Test [9] addresses Calmodulin-1 (Homo sapiens) (UniProt P0DP23). Nature of the test: CALM1 binders on microarrays, EGTA buffer, profiling panel, biochemical, small-molecule microarray, Cy5-labelled CALM1 (AID 1111).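 Further: labelled calmodulin applied in Tris saline Tween buffer holding calcium plus EGTA and DTT.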 Conditions: Cy5-CALM1 binding fluorescence, higher = more signal.
Test [10] shares this target. The experiment in a line: calcium-bound CALM1 binders on microarrays, profiling panel, artefact control for SMM control-protein annotation, biochemical, small-molecule microarray, Cy5-labelled CALM1, plus calcium (AID 1112).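 Further: score merges spot fluorescence with signal to noise from triplicate slides.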 Conditions: Cy5-CALM1 binding fluorescence, higher = more signal.
A short description of test [11]: small-molecule microarray binders of probe aWnt5a, primary screen, biochemical, biotinylated probe, 635/667 nm fluorescence (AID 1113).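 Further: score merges 667 nm fluorescence intensity with signal-to-noise per printed feature.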 Conditions: higher = more signal.
The nature of test [12]: small-molecule microarray binders of probe aShh, primary screen, biochemical, biotinylated probe, 635/667 nm fluorescence (AID 1114).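 Further: probe is biotin-labelled aShh protein from a stem cell growth factor screen; measures binding of labelled protein to compounds printed on the slide; score merges feature fluorescence at 667 nm with signal-to-noise.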 The conditions noted are these: higher = more signal.
Test [13] is described as follows: small-molecule microarray binders of probe aNog, primary screen, biochemical, biotinylated probe, 635/667 nm fluorescence (AID 1115).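 Further: probe is biotinylated aNog protein used at 0.15 µg/mL for 1 h at 4 C; z-score combines 667 nm fluorescence of each spot with its signal to noise.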 The conditions noted are these: higher = more signal.
Test [14] has as its target Torsin-1A-interacting protein 1 (Homo sapiens) (UniProt Q5JTV8). Nature of the test: LAP1 binders from COS7 cell lysate, primary screen, small-molecule microarray, 635/667 nm fluorescence (AID 1116). The conditions noted are these: COS7-hLAP1 lysate binding, 635 nm fluorescence, higher = more signal.
The target in a further test is Albumin (Bos taurus) (UniProt P02769). Nature of the test: bovine serum albumin binders on microarray, profiling panel, artefact control for SMM control protein annotation, biochemical, small-molecule microarray, Alexa647 label, 635/667 nm fluorescence (AID 1118).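 Further: score merges 667 nm emission intensity and signal-to-noise per printed compound spot.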 Conditions: BSA-A647 binding, fluorescence 635 nm, higher = more signal.
Test [15] in a line: small-molecule microarray binders of probe aXIP, primary screen, biochemical, NeuroSMM set, 635/667 nm fluorescence (AID 1119).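 Further: probe is the protein aXip251-270 applied at 1 µg/mL to compound-printed slides; binding of probe to printed compounds measured as 667 nm fluorescence plus signal to noise.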 The conditions noted are these: higher = more signal, called active from +8 up or from −8 down.
Test [16] in a line: small-molecule binders of probe aNOTCH3, primary screen, biochemical, small-molecule microarray, 635/667 nm fluorescence (AID 1120).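 Further: probe is a biotin-tagged antibody raised against NOTCH3 rather than NOTCH3 protein; score merges spot fluorescence near 667 nm with spot signal to noise.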 The conditions noted are these: higher = more signal.
Test [17] in a line: small-molecule binders of probe aNOTCH2, primary screen, biochemical, small-molecule microarray, 635/667 nm fluorescence (AID 1121).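 Further: score merges feature fluorescence read at 667 nm with its signal to noise.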 Conditions: higher = more signal.
For test [18], the target named is Carbonic anhydrase 2 (Homo sapiens) (UniProt P00918). Nature of the test: CAII small-molecule binders, profiling panel, biochemical, small-molecule microarray, Alexa647-labelled CAII (AID 1122). Conditions: CAII-A647 binding fluorescence, higher = more signal.
Test [19] is described as follows: COS7 lysate on small-molecule microarray, probe aHis, 635 nm (AID 1123).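 Further: z-score combines 667nm fluorescence intensity with signal-to-noise per printed compound spot.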 The conditions noted are these: COS7 cell lysate, fluorescence, higher = more signal.

For `CN1/C(=N\P(=O)(Oc2ccccc2)Oc2ccccc2)CC(c2ccc(CO)cc2)=CC1c1cccs1` (stereo not given), the composite z-score is 0.415 in test [1]; -0.178 in test [2]; 0.0779 in [3]; 0.199 in [4]; -0.171 in [5]; 1.36 in [6]. Further, the composite z-score in test [8] was 0.0506; in test [9] it was 1.17; in test [10], 0.864; in test [11] it was 0.0101; in test [12] it was -0.297; in test [13], 0.82. Further, the composite z-score in test [14] was 2.11; with Albumin (Bos taurus) it was 0.717; in [16], 0.0744; in [17], -0.118; in test [18], 0.923; in test [19], 1.86. For the same molecule, the z-score in [7] was found to be 1.2. In addition, in test [15], the composite Z-score was inactive: 0.528.

As to `CN1/C(=N\P(=O)(Oc2ccccc2)Oc2ccccc2)CC(c2ccc(CO)cc2)=CC1C1CC1` (stereo not given), the composite z-score in test [1] was 0.415; in test [2], 0.0063; in [3], 0.0368; in test [4], -0.195; in [5] it was -0.391; in test [6], 1.14. Further, the composite z-score in test [8] was 0.306; in [9] it was 2.19; in [10], 0.679; in test [11] it was -0.101; in test [12] it was -0.515; in [13] it was 0.728. The composite z-score in [14] is 0.197; in the test with Albumin (Bos taurus), 1.02; in [16] it was 0.129; in test [17], -0.0535; in test [18], 0.882; in [19] it was 2.74. Moreover, in test [7], the z-score was -0.949. Moreover, in [15], the composite Z-score was inactive: -0.0905.

With `O=P(/N=C1/CC(CCCO)=CC(c2ccc(CN3CCCC3)cc2)N1Cc1cc2c(cc1Br)OCO2)(Oc1ccccc1)Oc1ccccc1` (stereo not given), the composite z-score in test [1] is -0.429; in test [2], -0.276; in test [3] it was -0.215; in test [4], -0.541; in [5], -0.554; in [6], 1.28. Moreover, the composite z-score in [8] was -0.798; in test [9] it was 1.36; in [10], 0.861; in [11] it was -0.0887; in test [12] it was -0.366; in test [13] it was 1.04. Besides, the composite z-score was 0.982 in test [14]; 0.231 in the test with Albumin (Bos taurus); -0.0984 in [16]; 0.0022 in [17]; 0.909 in [18]; 1.32 in test [19]. Further, the z-score in test [7] is -0.427. For the same molecule, in test [15], the composite Z-score was inactive: 0.0707.

On to `COP(=O)(/N=C1/CC(CCCO)=CC(c2cccs2)N1C)OC` (stereo not given), for which the composite z-score in test [1] is 0.321; in test [2] it was 1.09; in test [3] it was 0.088; in [4] it was 0.517; in [5], 0.0074; in test [6] it was 1.02. Besides, the composite z-score in test [8] was 0.17; in [9] it was 1.92; in test [10] it was 1.39; in [11], 0.312; in test [12], 0.104; in test [13], -0.0121. Further, the composite z-score in test [14] came out at 1.48; with Albumin (Bos taurus), 0.442; in [16] it was 0.366; in test [17] it was 0.329; in [18] it was 0.47; in [19], 0.93. The molecule also yielded a z-score in test [7] of 0.483. For the same molecule, the composite Z-score in test [15] was inactive: 0.309.

On to `O=P(/N=C1/CC(c2ccc(CO)cc2)=CC(c2cccs2)N1Cc1cccc(OC(F)(F)F)c1)(Oc1ccccc1)Oc1ccccc1` (stereo not given), for which the composite z-score in [1] was 0.295; in test [2] it was 0.133; in [3], 0.0856; in test [4] it was 0.511; in test [5], -0.483; in test [6] it was 1.23. Further, the composite z-score is -0.306 in test [8]; 2.1 in [9]; 0.954 in test [10]; -0.0735 in [11]; -0.138 in test [12]; 0.595 in test [13]. The composite z-score in test [14] was determined as 1.14; with Albumin (Bos taurus), 0.957; in test [16], 0.0623; in test [17], 0.0268; in test [18], 0.781; in [19], 2.76. The molecule also came in with a z-score in test [7] of -1.34. For the same molecule, the composite Z-score in test [15] is inactive: 0.181.

Regarding `COP(=O)(/N=C1/CC(c2ccc(CO)cc2)=CC(C2CC2)N1Cc1sc2ccccc2c1Cl)OC` (stereo not given), the composite z-score came to 1.45 in test [1]; 1.24 in [2]; 0.338 in test [3]; 0.972 in test [4]; 1.61 in test [5]; 1.23 in test [6]. In addition, the composite z-score in test [8] came to 1.05; in test [9] it was 2.37; in test [10] it was 0.908; in test [11], 0.436; in [12] it was 0.508; in test [13], 1.63. The composite z-score in test [14] was 1.72; in the test with Albumin (Bos taurus), 0.781; in [16], 0.802; in test [17], 0.303; in test [18], 0.792; in test [19], 1.29. In test [7], the z-score was -1.16. Besides, the composite Z-score in test [15] is inactive: 0.121.

As to `CN1/C(=N\P(=O)(Oc2ccccc2)Oc2ccccc2)CC(CCCO)=CC1c1ccc(CN2CCCC2)cc1` (stereo not given), the composite z-score in test [1] amounted to 1.36; in [2] it was 0.92; in test [3], 0.271; in test [4], 1.14; in test [5] it was 0.705; in test [6], 0.807. Moreover, the composite z-score in [8] was 0.41; in [9] it was 1.61; in [10] it was 0.871; in [11], -0.0371; in test [12], 0.0278; in test [13] it was 0.201. Further, the composite z-score in test [14] stood at 0.748; in the test with Albumin (Bos taurus), 0.916; in [16], 0.132; in test [17], 0.0521; in test [18], 0.859; in test [19] it was 0.695. The z-score in test [7] is -2.24. Moreover, the composite Z-score in test [15] is inactive: 0.0063.

With `O=P(/N=C1/CC(c2ccc(CO)cc2)=CC(C2CC2)N1Cc1cc2c(cc1Br)OCO2)(Oc1ccccc1)Oc1ccccc1` (stereo not given), the composite z-score in test [1] is 1.23; in test [2], 1.28; in test [3], 0.576; in [4], 0.956; in [5], 0.305; in [6] it was 1.31. The composite z-score is 0.543 in test [8]; 1.76 in test [9]; 0.568 in [10]; 0.0077 in test [11]; 0.385 in [12]; -0.0381 in [13]. Besides, the composite z-score in test [14] is 1.82; with Albumin (Bos taurus), 0.604; in test [16] it was -0.0003; in test [17], -0.142; in test [18] it was 0.381; in test [19], 2.53. This molecule also gave a z-score in test [7] of -1.99. Besides, in [15], the composite Z-score was inactive: 2.15.
